{"source": "paper PMC8804612", "about": "(2021)", "key": {"A549 cells": {"system": "A549 cells", "assay": "cells", "details": "Homo sapiens, A549, 48 h, read-out: EC50 (suppression of proliferation)"}, "A431 cells": {"system": "A431 cells", "assay": "cells", "details": "Homo sapiens, A-431, 48 h, read-out: EC50 (suppression of proliferation)"}, "HUVEC": {"system": "HUVEC", "assay": "EC50 determination, cell proliferation by IncuCyte live-cell imaging", "type": "cell-based", "details": "Homo sapiens, 48 h, read-out: EC50 (suppression of proliferation)"}, "LNCaP cells": {"system": "LNCaP cells", "assay": "EC50 determination, cell proliferation by IncuCyte live-cell imaging", "type": "cell-based", "details": "Homo sapiens, 48 h, read-out: EC50 (suppression of proliferation)"}}}
{"compound": "COc1cccc2c1-c1c(c3c(n1C(C)C)CC(C)CC3=O)C2=O", "note": "(stereo not shown) [5a‐2, 5-Isopropyl-4-methoxy-7-methyl-5,6,7,8-tetrahydro-indeno[1,2-b]indole-9,10-dione]", "values": [{"measurement": "EC50", "setting": "A549 cells", "value": 39.8, "unit": "µM"}, {"measurement": "EC50", "setting": "A431 cells", "value": 21.2, "unit": "µM"}, {"measurement": "EC50", "setting": "HUVEC", "value": 30.8, "unit": "µM"}, {"measurement": "EC50", "setting": "LNCaP cells", "value": 14.2, "unit": "µM"}]}
